Data published in patent publication US12583900B2, “Peptide conjugates and methods of use” (The Scripps Research Institute, priority 2019, dated 2026).

Chains of the proteins cited; added tags and fusions are not shown. Residues count along the entry.
UniProt P02770, 25-608: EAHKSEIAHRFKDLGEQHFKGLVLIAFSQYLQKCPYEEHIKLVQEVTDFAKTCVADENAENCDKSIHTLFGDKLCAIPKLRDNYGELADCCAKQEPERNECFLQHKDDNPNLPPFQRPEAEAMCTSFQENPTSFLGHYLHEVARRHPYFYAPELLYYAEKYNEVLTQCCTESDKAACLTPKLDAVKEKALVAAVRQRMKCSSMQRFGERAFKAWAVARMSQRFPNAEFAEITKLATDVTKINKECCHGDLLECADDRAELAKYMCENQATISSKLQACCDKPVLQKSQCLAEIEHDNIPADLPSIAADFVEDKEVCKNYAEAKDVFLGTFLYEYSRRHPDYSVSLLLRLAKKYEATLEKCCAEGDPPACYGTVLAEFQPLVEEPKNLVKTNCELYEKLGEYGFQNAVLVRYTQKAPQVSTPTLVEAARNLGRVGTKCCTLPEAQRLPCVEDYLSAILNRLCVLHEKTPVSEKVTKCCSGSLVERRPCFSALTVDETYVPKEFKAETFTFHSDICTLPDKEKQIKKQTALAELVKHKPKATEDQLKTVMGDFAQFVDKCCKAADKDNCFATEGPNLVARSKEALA
UniProt P02768, 25-609: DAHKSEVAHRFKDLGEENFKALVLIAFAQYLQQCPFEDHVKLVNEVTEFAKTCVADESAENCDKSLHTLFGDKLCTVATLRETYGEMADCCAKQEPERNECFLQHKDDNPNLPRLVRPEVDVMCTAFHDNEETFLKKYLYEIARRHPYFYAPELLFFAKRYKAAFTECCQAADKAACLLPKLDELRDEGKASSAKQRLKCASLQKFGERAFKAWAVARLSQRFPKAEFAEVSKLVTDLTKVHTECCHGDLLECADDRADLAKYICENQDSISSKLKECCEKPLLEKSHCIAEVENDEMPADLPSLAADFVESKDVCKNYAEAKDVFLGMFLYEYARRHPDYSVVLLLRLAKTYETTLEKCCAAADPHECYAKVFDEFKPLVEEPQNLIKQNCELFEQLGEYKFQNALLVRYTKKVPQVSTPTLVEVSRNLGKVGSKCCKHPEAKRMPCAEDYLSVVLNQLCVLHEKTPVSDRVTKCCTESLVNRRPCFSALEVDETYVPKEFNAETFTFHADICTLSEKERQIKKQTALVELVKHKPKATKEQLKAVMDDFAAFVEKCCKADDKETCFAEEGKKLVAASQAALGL

Columns and labels:
[1] = Plasma peptide stability in mouse plasma, LC-MS (QTOF)
rat serum albumin (RSA) = rat serum albumin (RSA) (Rattus norvegicus, UniProt P02770); assay: Biacore SPR serum albumin binding (RSA)
Description: Conjugate serum albumin binding affinities were measured directly using a Biacore surface plasmon resonance (SPR) assay, which were used to calculate the unbound fraction (fu) for each conjugate. Half-life was calculated using the steady-state volume of distribution (Vss) and clearance (CL) using the following equation: […]
Predicted human half-lives based on allometric scaling corrected for albumin binding are shown in Table 19 alongside experimentally determined parameters for both rat (RSA) and human serum albumin (HSA). […] In addition no large species differences were observed.

[2] = target: human serum albumin (HSA) (Homo sapiens, UniProt P02768); assay: Biacore SPR serum albumin binding (HSA); conditions: unbound fraction calculated from HSA binding affinity

| Substance | complete disappearance in mouse plasma (time) [1] [h] | half-life in mouse plasma ([1]; 37° C.) [min] | Kd (rat serum albumin (RSA); Biacore SPR, rat serum albumin) [µM] | fu RSA (rat serum albumin (RSA); unbound fraction calculated from RSA binding affinity) [%] | fu HSA [2] [%] |
| --- | --- | --- | --- | --- | --- |
| SRAHQHSMETRTPDINPAWYTGRGIRPVGRF-NH2 [PrRP31] | 1 | ~11 | – | – | – |
| semaglutide | – | – | 17 | 3.3 | 0.69 |
